For this assay, the system named is Wnt-inducible genes (TCF/LEF luciferase reporter in DLD-1 TOPFlash cells). As to the kind of experiment: cells. The following applies: Homo sapiens, DLD-1, 24 h, read-out: Wnt-inducible gene expression inhibition IC50, DLD-1 TOPFlash cells, 24 hours; Mean ± SEM.

Broadly, the IC50 is the concentration that gives 50% inhibition. `CCC(c1ncccn1)N1CCN(c2nc3c(c(=O)[nH]2)CCCN3C)CC1` (single isomer, unassigned; isomer 1) [Example 11, 8-Methyl-2-[4-(1-pyrimidin-2-ylpropyl)piperazin-1-yl]-3,5,6,7-tetrahydropyrido[2,3-d]pyrimidin-4-one, Isomer 1]: the IC50 stood at 28.1 nM. For `CN1CCCc2c1nc(N1CCN(Cc3nccc(Cl)n3)CC1)[nH]c2=O` [Example 41, 2-[4-[(4-Chloropyrimidin-2-yl)methyl]piperazin-1-yl]-8-methyl-3,5,6,7-tetrahydropyrido[2,3-d]pyrimidin-4-one], the IC50 turned out to be 13.8 nM.

The values are drawn from patent publication US9624218B2 (Eli Lilly and Company, priority 2014, dated 2017).
